Reference: BindingDB's records for doi:10.1007/s00210-001-0505-y (Institut De Recherches Servier, 2002)

Protein sequences, listed by entry. Tags and fused reporters are not part of them. Lines headed by an entry give the natural chain unless they say otherwise; changes in a name come on top.
UniProt P28335: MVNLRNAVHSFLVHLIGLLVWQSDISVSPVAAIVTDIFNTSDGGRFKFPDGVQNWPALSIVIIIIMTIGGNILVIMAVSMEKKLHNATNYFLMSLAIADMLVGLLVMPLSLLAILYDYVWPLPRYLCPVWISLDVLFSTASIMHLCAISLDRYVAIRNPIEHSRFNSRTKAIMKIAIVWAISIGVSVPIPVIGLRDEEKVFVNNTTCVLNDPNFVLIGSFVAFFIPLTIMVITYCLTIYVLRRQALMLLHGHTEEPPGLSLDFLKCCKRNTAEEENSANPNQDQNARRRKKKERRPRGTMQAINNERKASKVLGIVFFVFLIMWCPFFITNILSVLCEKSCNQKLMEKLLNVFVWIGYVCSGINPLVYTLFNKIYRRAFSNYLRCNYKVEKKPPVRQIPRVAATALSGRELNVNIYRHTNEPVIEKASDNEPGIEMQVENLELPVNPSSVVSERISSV

Target: 5-hydroxytryptamine receptor 2C (Homo sapiens, UniProt P28335)

## Cn1ccc2cc3c(cc21)CCN3C(=O)Nc1cccnc1
  Ki: 3.16 nM

## Cc1cc(NC(=O)Nc2ccc3c(ccn3C)c2)sn1 [CAS_3277600]
  Ki: 2140 nM

## CN1C[C@@H](NS(=O)(=O)N(C)C)C[C@@H]2c3cccc4c3c(cn4C)C[C@H]21 [MESULERGINE]
  Ki: 1.12 nM
